pIC50: −log10 of the molar value.
Molecular target: Syk (Homo sapiens (Human), UniProt P43405)
Assay: High Throughput Syk Biochemical Assay (KinEASE TR-FRET)
Protocol: Syk activity was measured using KinEASE (Cisbio), a time-resolved fluorescence resonance energy transfer (TR-FRET) immunoassay. In this assay, Syk-catalyzes the phosphorylation of a XL665-labeled peptide substrate. Europium conjugated phospho-tyrosine specific antibody binds the resulting phosphorylated peptide. Formation of phosphorylated peptide is quantified by TR-FRET with Europium as the donor and XL665 the acceptor in a 2-step endpoint assay. In brief, test compounds serially diluted in DMSO were delivered into Corning white, low volume, non-binding 384 well plates using the Echo 550 acoustic liquid dispenser (Labcyte®). Syk enzyme and substrates were dispensed into assay plates using a Multi-Flo (Bio-Tek Instruments).

Nc1cncc(-c2cn3ccnc3c(Nc3ccc(N4CCN(C5COC5)CC4)cc3)n2)n1 [Ex.-2, 6-(6-aminopyrazin-2-yl)-N-(4-(4-(oxetan-3-yl)piperazin-1-yl)phenyl)imidazo[1,2-a]pyrazin-8-amine] gave a pIC50 (20 μM ATP, 0.015 nM Syk) of 7.87 and a pIC50 (comparison table with known Syk inhibitors) of 7.87.
